Key:
[1] = biological target: recombinant human CD33 protein (Homo sapiens, UniProt P20138); experiment: ELISA binding of antibody-drug conjugates to recombinant human CD33 protein; conditions: CD33 coated at 0.5 µg/mL, statement in words
Experimental: Example 110: ELISA to detect the binding of antibody-drug conjugates to recombinant human CD33 protein
The binding ability of antibodies to antigens can be preliminarily determined by ELISA. In the present invention, the recombinant human CD33 protein was fixed on the enzyme strip, and a series of CD33 antibodies with a concentration gradient were added for detection. • 1. Coating: Dilute CD33 to 0.5 µg/mL with 1×PBS, 100 µL per well, and coat overnight at 4°C. • 2. Washing: Wash the plate 3 times with washing buffer (1×PBS+0.05%Tween20), 200 µL per well, and let stand for 1 min each time. • 3. Blocking: After patting the washing buffer dry for the third time, add blocking buffer (1×PBS+0.05%Tween20+1% BSA), 200 µL per well, and block at 37°C for 1 hour. • 4. Washing: Wash the plate 3 times with washing buffer, 200 µL per well, and let stand for 1 min each time. • 5. Loading of primary antibody: dilute the antibody-drug conjugate from 2 µg/mL in a 3-fold gradient with sample diluent (1×PBS+0.05%Tween20+1% BSA); wash the plate 3 times with plate washing buffer, 200 µL per well, and let stand for 1 min each time. • 6. Loading of secondary antibody: dilute Solarbio's rabbit anti-human antibody 1:10000 to 100 µL per well with analysis buffer (1×PBS+0.05%Tween20+1% BSA), and let stand for 1 hour at 37°C. • 7. Washing: Wash the plate 3 times with plate washing buffer, 200 µL per well, and let stand for 1 min each time. • 8. Reading: Add TMB colorimetric solution (50 µL per well) and stop the color development after 7 min by adding 2 M H2SO4 (50 µL per well). Read the plate at 450 nm using an ELISA reader. […] Example 111: In vitro efficacy detection of antibody-drug conjugates.

Amino acid sequences for entries named in this document (tags omitted). Residues count along the entry.
UniProt P20138, 18-364: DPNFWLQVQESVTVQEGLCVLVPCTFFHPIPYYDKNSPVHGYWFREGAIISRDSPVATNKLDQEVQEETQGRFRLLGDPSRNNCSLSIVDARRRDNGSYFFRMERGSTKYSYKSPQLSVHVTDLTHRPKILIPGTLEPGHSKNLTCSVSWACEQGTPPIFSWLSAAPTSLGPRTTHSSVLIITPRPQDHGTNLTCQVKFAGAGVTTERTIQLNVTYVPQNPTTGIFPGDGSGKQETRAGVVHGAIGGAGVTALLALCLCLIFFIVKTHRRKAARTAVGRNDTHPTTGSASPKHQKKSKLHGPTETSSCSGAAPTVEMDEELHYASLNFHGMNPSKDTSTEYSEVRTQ

[2] = Determination of monomer rate by SEC-HPLC; format: physicochemical
Experimental: Example 106: Determination of monomer rate by method SEC-HPLC
Determination of monomer rate method: using SEC-HPLC Column: Biocore SEC-300 5 µm, 4.6×300 mm Manufacturer: NanoChrom, Item No.: B213-050030-04630S Mobile phase: 50 mM PB+300 mM NaCl+200 mM Arg+5% IPA, pH=6.5 Table 1: Methodological parameters

[3] = for DAR, Incubate Day 0 / DAR, Incubate Day 3 / DAR, Incubate Day 7: IgG-free human plasma, ADC 0.6 mg/mL; for DAR, Incubate Day 0: 0 days, then extraction; for DAR, Incubate Day 3 / DAR, Incubate Day 7: 37°C; for DAR, Incubate Day 3: 3 days; for DAR, Incubate Day 7: 7 days; for DAR, Unincubated Extract: purification and extraction without incubation with plasma; for DAR, Unincubated No Extract: stability at 4°C for 0 days, no plasma incubation, no extraction
Experimental: Example 109: Plasma Stability Assay
A mixture of ADC and IgG-free human plasma was prepared to a final concentration of ADC of 0.6 mg/mL and placed in a water bath in a 37°C incubator for incubation. The incubation time was set to 0 days, 3 days, and 7 days. At the same time, unincubated and unextracted controls and unincubated and extracted controls were set. The incubated samples were purified and extracted, and the drug-antibody ratio DAR was measured to reflect the stability of ADC in human plasma.

U937 cells = experiment: In vitro efficacy of ADCs (Example 111), U937; format: cell-based, human; conditions: treatment for 5 days, Alamar Blue or MTS
Experimental: (§1) In the present invention, various human tumor cell lines (HL-60, HEL92.1.7, TF-1, MV4-11, MOLM-13, U937 and CMK) were used as experimental models to evaluate the in vitro efficacy of ADC drugs. A certain number of tumor cell lines were inoculated in a 96-well plate, and gradient dilutions of the test antibody and the corresponding ADC drug were added to the cells. After treatment for 5 days, Alamar Blue or MTS was used to detect cell viability, and the inhibitory effect of the test antibody and ADC on the tumor cell line was evaluated by calculating IC50. The initial concentration of the antibody drug was 500 nM, the dilution multiple was 7 times, a total of 8 concentration points, and the treatment lasted for 5 days. The final algorithm was based on the survival rate = (experimental group-blank)/(control group-blank group) × 100%, and then the half-maximal inhibitory concentration (IC50) was calculated using Graph Pad Prism to fit the curve.

TF-1 cells = experiment: In vitro efficacy of ADCs (Example 111), TF-1; format: cell-based, human; conditions: treatment for 5 days, Alamar Blue or MTS
Experimental: as §1

HEL92.1.7 cells = experiment: In vitro efficacy of ADCs (Example 111), HEL92.1.7; format: cell-based, human; conditions: treatment for 5 days, Alamar Blue or MTS
Experimental: as §1

HL-60 cells = experiment: In vitro efficacy of ADCs (Example 111), HL-60; format: cell-based, human; conditions: treatment for 5 days, Alamar Blue or MTS
Experimental: as §1

MV4-11 cells = experiment: In vitro efficacy of ADCs (Example 111), MV4-11; format: cell-based, human; conditions: treatment for 5 days, Alamar Blue or MTS
Experimental: as §1

CMK cells = experiment: In vitro efficacy of ADCs (Example 111), CMK; format: cell-based, human; conditions: treatment for 5 days, Alamar Blue or MTS
Experimental: as §1

MOLM-13 cells = experiment: In vitro efficacy of ADCs (Example 111), MOLM-13; format: cell-based, human; conditions: treatment for 5 days, Alamar Blue or MTS
Experimental: as §1

| Molecule | affinity to CD33 antigen compared with the naked antibody (EC50) [1] | Degradation % [2] [%] | DAR, Incubate Day 0 [3] | DAR, Incubate Day 3 [3] | DAR, Incubate Day 7 [3] | DAR, Unincubated Extract [3] | DAR, Unincubated No Extract [3] | IC50 (U937 cells) [nM] | IC50 (TF-1 cells) [nM] | IC50 (HEL92.1.7 cells) [nM] | IC50 (HL-60 cells) [nM] | IC50 (MV4-11 cells) [nM] | IC50 (CMK cells) [nM] | IC50 (MOLM-13 cells) [nM] |
| --- | --- | --- | --- | --- | --- | --- | --- | --- | --- | --- | --- | --- | --- | --- |
| ADC-46 (conjugate) heavy: EVQLVQSGAEVKKPGSSVKVSCKASGYTITDSNIHWVRQAPGQSLEWIGYIYPYNGGTDYNQKFKNRATLTVDNPTNTAYMELSSLRSEDTAFYYCVNGNPWLAYWGQGTLVTVSSASTKGPSVFPLAPSSKSTSGGTAALGCLVKDYFPEPVTVSWNSGALTSGVHTFPAVLQSSGLYSLSSVVTVPSSSLGTQTYICNVNHKPSNTKVDKRV[human IgG1 Fc not given here] light: DIQLTQSPSTLSASVGDRVTITCRASESLDNYGIRFLTWFQQKPGKAPKLLMYAASNQGSGVPSRFSGSGSGTEFTLTISSLQPDDFATYYCQQTKEVPWSFGQGTKVEVKRTVAAPSVFIFPPSDEQLKSGTASVVCLLNNFYPREAKVQWKVDNALQSGNSQESVTEQDSKDSTYSLSSTLTLSKADYEKHKVYACEVTHQGLSSPVCTKSFNRGEC | maintained similar affinity to the naked antibody | 0.000 | 8.49 | 8.46 | 8.32 | 8.46 | 8.56 |  |  |  |  |  |  |  |
| ADC-48 (conjugate) heavy: EVQLVQSGAEVKKPGSSVKVSCKASGYTITDSNIHWVRQAPGQSLEWIGYIYPYNGGTDYNQKFKNRATLTVDNPTNTAYMELSSLRSEDTAFYYCVNGNPWLAYWGQGTLVTVSSASTKGPSVFPLAPSSKSTSGGTAALGCLVKDYFPEPVTVSWNSGALTSGVHTFPAVLQSSGLYSLSSVVTVPSSSLGTQTYICNVNHKPSNTKVDKRV[human IgG1 Fc not given here] light: DIQLTQSPSTLSASVGDRVTITCRASESLDNYGIRFLTWFQQKPGKAPKLLMYAASNQGSGVPSRFSGSGSGTEFTLTISSLQPDDFATYYCQQTKEVPWSFGQGTKVEVKRTVAAPSVFIFPPSDEQLKSGTASVVCLLNNFYPREAKVQWKVDNALQSGNSQESVTEQDSKDSTYSLSSTLTLSKADYEKHKVYACEVTHQGLSSPVCTKSFNRGEC | maintained similar affinity to the naked antibody | 0.000 | 7.88 | 7.65 | 7.29 | 7.91 | 8.01 | 177 | 0.75 | 20.2 | 20.5 | 0.84 | 60.1 | 0.06 |
| ADC-47 (conjugate) heavy: EVQLVQSGAEVKKPGSSVKVSCKASGYTITDSNIHWVRQAPGQSLEWIGYIYPYNGGTDYNQKFKNRATLTVDNPTNTAYMELSSLRSEDTAFYYCVNGNPWLAYWGQGTLVTVSSASTKGPSVFPLAPSSKSTSGGTAALGCLVKDYFPEPVTVSWNSGALTSGVHTFPAVLQSSGLYSLSSVVTVPSSSLGTQTYICNVNHKPSNTKVDKRV[human IgG1 Fc not given here] light: DIQLTQSPSTLSASVGDRVTITCRASESLDNYGIRFLTWFQQKPGKAPKLLMYAASNQGSGVPSRFSGSGSGTEFTLTISSLQPDDFATYYCQQTKEVPWSFGQGTKVEVKRTVAAPSVFIFPPSDEQLKSGTASVVCLLNNFYPREAKVQWKVDNALQSGNSQESVTEQDSKDSTYSLSSTLTLSKADYEKHKVYACEVTHQGLSSPVCTKSFNRGEC | maintained similar affinity to the naked antibody | 0.000 | 8.24 | 8.16 | 8.2 | 8.17 | 8.32 | 7.64 | 0.13 | 1.31 | 2.76 | 0.49 | 7.05 | 0.13 |
